Tested on: mouse ES cells (Pdx1/GFP)
Experiment: Differentiation of mouse ES cells into insulin positive cells on nano fiber plate, immunostaining and quantitative image analysis
Settings: similar separate experiments

With pirlindole mesylate the “induction of the differentiation of stem cells into insulin-producing cells” value was “induce the differentiation of stem cells into insulin-producing cells”.

Reference: patent US9617517B2, “Small chemical compound which promotes induction of differentiation of stem cells into insulin-producing cells and method for inducing differentiation of stem cells into insulin-producing cells using said small chemical compound” (NATIONAL UNIVERSITY CORPORATION KUMAMOTO UNIVERSITY, priority 2011, dated 2017)
